Measurements as given in patent US9718869B2, “Peptide-based compounds and uses thereof to treat beta-amyloid accumulation” (MANUS PHARMACEUTICALS (CANADA) LTD., priority 2012, dated 2017).

Test system: sham-operated mice
Experiment: Morris water maze spatial memory test, sham-operated mice immunized with (FR-3-NP-1)2-Lys-OH / (R-2-FR-3-NP-1)2-Lys-OH in IFA (Example 3)
Details: four immunizations with IFA

Ser-Glu-Arg-Phe-Tyr-Glu-Cys-Cys-Lys-Glu-Lys(Ser-Glu-Arg-Phe-Tyr-Glu-Cys-Cys-Lys-Glu)-OH [(FR-3-NP-1)2-Lys-OH]
Effect of immunization on spatial memory of SO mice (in words): did not have a negative impact on their spatial memory
